Assay results reported in ChEMBL document CHEMBL4270552, “4-(Phenoxy) and 4-(benzyloxy)benzamides as potent and selective inhibitors of mono-ADP-ribosyltransferase PARP10/ARTD10” (Eur J Med Chem, 2018).

biological target: T1, Protein mono-ADP-ribosyltransferase PARP10 (Homo sapiens) (UniProt Q53GL7); conditions: 10 uM
T1 sequence (whole entry): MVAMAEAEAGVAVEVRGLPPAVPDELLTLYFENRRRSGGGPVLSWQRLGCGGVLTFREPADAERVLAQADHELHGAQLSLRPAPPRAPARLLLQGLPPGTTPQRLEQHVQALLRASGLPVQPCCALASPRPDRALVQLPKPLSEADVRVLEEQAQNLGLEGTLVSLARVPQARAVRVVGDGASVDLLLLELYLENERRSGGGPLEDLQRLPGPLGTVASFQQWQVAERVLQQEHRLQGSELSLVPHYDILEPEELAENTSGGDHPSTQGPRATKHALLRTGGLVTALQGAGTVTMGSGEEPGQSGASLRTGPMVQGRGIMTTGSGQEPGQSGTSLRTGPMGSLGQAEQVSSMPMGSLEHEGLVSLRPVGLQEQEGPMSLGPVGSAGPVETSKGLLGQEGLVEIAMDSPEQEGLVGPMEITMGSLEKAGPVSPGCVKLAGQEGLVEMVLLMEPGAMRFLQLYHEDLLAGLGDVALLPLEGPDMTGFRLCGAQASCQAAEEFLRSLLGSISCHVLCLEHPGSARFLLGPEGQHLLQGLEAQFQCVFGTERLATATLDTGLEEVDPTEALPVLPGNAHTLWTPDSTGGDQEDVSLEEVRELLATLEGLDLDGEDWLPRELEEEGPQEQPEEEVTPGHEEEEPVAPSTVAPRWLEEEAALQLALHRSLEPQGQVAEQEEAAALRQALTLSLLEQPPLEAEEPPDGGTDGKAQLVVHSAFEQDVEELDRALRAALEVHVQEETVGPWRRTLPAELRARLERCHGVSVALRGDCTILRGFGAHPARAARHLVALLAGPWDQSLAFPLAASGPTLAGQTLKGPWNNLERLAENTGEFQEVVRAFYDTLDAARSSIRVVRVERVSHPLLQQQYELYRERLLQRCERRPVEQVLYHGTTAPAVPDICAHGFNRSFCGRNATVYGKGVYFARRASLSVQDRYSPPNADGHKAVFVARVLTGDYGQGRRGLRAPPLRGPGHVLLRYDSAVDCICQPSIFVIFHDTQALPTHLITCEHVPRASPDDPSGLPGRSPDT

Going from NC(=O)c1ccc(C(=O)c2ccc([N+](=O)[O-])cc2)cc1 to NC(=O)c1ccc(Nc2ccc(C(N)=O)cc2)cc1, the inhibition falls from 24% to 0%.

Going from NC(=O)c1ccc(O)cc1 to NC(=O)c1ccc(Oc2ccccn2)cc1, the inhibition rises from 27% to 49%.

Going from CN(c1ccc(C(N)=O)cc1)c1ccc(C(N)=O)cc1 to NC(=O)c1ccc(Sc2ccc(C(N)=O)cc2)cc1, the inhibition rises from 26% to 30%.

Going from CC(C)c1ccc(C(C)Oc2ccc(C(N)=O)cc2)cc1 (stereo not given) to CCOc1ccc(OCc2ccc(C(N)=O)cc2)cc1, the inhibition falls from 16% to 0%.

Going from N#Cc1ccc(Sc2ccc(C(N)=O)cc2)cc1 to CP(=O)(c1ccc(C(N)=O)cc1)c1ccc(C(N)=O)cc1, the inhibition falls from 16% to 0%.
